pIC50: −log10 of the molar value.
Target: T1, 5-HT2 receptor (Rattus norvegicus, UniProt P14842)
T1 construct: Rat brain frontal cortex from male Wistar rats; from tissue; host or cells: rat brain frontal cortex (male Wistar), membrane pellet
Test: binding to 5-HT2 sites ([3H]spiperone displacement, rat brain frontal cortex)
Set-up: species or system rat (Wistar)
Method: The pellet from the frontal cortex homogenates was suspended in 0.05 molar (M) Tris buffer containing 10 micromolar (μM) pargyline and 4 millimolar (mM) Ca^++ to give a final protein concentration of 250-350 microgram (μg) per sample. […] All radioactive ligands were obtained from New England Nuclear, Boston, Mass., USA. Specific binding was determined as the difference between total binding and nonspecific binding. Eleven concentrations of each of the compounds tested were used between 0.1 and 10,000 nM. All samples were run in duplicate.

The chains behind the UniProt entries cited, without tags or fusion partners.
UniProt P14842, whole entry: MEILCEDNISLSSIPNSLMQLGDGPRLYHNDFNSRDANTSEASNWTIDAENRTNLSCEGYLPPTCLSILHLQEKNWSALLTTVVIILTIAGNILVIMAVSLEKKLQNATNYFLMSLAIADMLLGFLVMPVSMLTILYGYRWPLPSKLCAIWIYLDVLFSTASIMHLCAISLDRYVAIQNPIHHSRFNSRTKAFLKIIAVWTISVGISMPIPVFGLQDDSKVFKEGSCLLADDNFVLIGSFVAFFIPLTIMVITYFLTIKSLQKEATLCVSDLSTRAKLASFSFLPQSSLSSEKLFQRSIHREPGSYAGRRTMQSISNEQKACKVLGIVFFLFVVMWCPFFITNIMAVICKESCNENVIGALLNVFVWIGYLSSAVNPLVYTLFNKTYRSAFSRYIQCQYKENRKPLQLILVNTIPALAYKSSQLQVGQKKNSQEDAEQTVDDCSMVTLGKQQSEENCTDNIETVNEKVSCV

**Q.** How did the pIC50 turn out when `O=C(CCCN1CCC2(CC1)C(=O)NCN2c1ccccc1)c1ccc(F)cc1` [spiperone, reference compound] was run?
**A.** 9.00
